Experimental data published in patent publication US5462954A, “Substituted phenyl phenol leukotriene antagonists” (Eli Lilly and Company, priority 1994, dated 1995).

By UniProt entry, the sequences of proteins in these tests, tags left out. Residues count along the entry.
UniProt H0VYV8, 1-348: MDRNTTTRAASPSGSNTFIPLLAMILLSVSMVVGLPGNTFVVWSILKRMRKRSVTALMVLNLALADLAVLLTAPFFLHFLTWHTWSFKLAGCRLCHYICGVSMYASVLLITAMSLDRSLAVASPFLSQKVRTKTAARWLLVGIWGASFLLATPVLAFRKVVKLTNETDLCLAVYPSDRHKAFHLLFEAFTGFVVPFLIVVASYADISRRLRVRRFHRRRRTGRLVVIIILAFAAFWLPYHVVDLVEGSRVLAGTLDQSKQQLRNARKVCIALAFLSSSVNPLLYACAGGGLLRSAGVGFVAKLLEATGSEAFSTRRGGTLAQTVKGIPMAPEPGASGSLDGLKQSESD

Target: binding of tritiated LTB4 to guinea pig lung membranes (Cavia porcellus, UniProt H0VYV8)
Assay: biochemical
Conditions: read-out: pKi (mean -log Ki) (converted)

## CCc1cc(-c2cc(Cl)cc(Cl)c2)c(O)cc1OCCCCCC(C)(C)c1nn[nH]n1 [monosodium salt]
  Ki: 26.3 nM

Where a name gives a salt, the structure may show the parent alone.
